Values quoted from earlier work as cited in article PMC5636616, “Studies on the Interaction of the Histone Demethylase KDM5B with Tricarboxylic Acid Cycle Intermediates” (Journal of Molecular Biology, 2017).

Molecular target: T1, KDM5B (Homo sapiens, UniProt Q9UGL1)
T1 construct: purified recombinant KDM5B (produced in Sf9 insect cells, M1-R822); made in house; host or cells: Sf9 insect cells
T1 sequence (Q9UGL1 1-822): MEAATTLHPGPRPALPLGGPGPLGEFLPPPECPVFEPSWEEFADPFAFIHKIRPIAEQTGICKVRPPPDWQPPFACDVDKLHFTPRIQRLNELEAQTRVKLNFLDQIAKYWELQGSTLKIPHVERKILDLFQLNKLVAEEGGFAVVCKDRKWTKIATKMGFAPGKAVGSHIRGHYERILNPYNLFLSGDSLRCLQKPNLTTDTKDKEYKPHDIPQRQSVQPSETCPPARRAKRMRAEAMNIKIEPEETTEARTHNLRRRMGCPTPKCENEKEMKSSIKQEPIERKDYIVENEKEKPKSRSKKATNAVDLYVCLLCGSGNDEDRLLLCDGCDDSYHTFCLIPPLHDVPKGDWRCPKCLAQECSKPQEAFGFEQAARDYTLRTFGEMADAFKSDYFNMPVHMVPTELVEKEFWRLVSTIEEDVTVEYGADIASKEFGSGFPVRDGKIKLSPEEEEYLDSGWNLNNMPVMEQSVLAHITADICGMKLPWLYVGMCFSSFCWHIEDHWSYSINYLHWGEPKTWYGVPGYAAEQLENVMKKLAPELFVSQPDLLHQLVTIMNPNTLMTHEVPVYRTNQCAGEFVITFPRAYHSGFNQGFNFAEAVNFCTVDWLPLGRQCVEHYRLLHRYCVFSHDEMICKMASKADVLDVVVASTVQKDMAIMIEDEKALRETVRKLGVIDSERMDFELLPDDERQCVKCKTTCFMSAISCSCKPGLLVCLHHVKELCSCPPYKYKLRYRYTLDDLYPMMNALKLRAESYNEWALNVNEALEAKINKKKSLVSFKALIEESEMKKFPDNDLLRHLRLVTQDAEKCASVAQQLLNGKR
Settings: FDH-coupled assay, truncated KDM5B; read-out: Km^app(H3K4me2(1–15)); cited from earlier work

H3K4me2(1–15): 15-mer histone H3 peptide fragment dimethylated at lysine-4, KDM5B substrate
Km: 3.6 µM
